These results are taken from paper PMC7793522.

The assay addresses EBV peptide on HLA-A*02:01 (human). Nature of the assay: data from [105]; method not given; soluble, other.

Substance AS01 came in with a Kd of 8.1 µM. This counts as single-digit micromolar.
